Earlier results on two compounds are cited in PMC2009657, “Mammalian cell transformation in vitro. Six tests for carcinogenicity” (British Journal of Cancer, 1978).

The conditions of this data set: in vivo; cited from earlier work.

For the compound `CO[C@@]12[C@H](COC(N)=O)C3=C(C(=O)C(C)=C(N)C3=O)N1C[C@@H]1N[C@@H]12` [Mitomycin C], the “Carcinogenicity, Lit.” value was “+”.

As for `COc1cc2c(c(OC)c1OC)-c1ccc(OC)c(=O)cc1[C@@H](NC(C)=O)CC2` [Colchicine], the “Carcinogenicity, Lit.” value is listed as “-”.
